Reference: US5440016A, “Peptides of the formula (KFmoc) ZZZ and their uses” (priority 1993, dated 1995)

Test system: Human red blood cells (RBCs)
Experiment: Hemolytic activity
Assay type: cell-based
Details: Tables 18-21
Method: Each assay was carried out in 96-well culture tissue plates. Four wells per plate contain 125 μl of a non-peptide positive control (1% Triton in de-ionized water), and four wells per plate contain 125 μl of a control blank, phosphate buffered saline (PBS). The hemolytic peptide melittin was used as comparative control. The controls served to detect possible contamination and to calculate the percent hemolysis of each peptide. Human red blood cells (RBCs) were washed with PBS and centrifuged to separate them from the serum. The cells were then resuspended in PBS to a final suspension of 0.5% RBC. 125 μl of this suspension was added to the peptides and controls solution. The release of hemoglobin resulting from the cell lysis was determined by measuring the OD at 414 nm of 100 μl of the supernatant.

Substance	HD50 (concentration necessary to lyse 50% of the cells) [µg/mL]
(KFmoc)ci(Cys[ACM])-NH2	84
(KFmoc)ci(Thiopro)-NH2	58
